{"source": "patent US4038401A", "about": "“Novel indole derivative” (John Wyeth & Brother Limited, priority 1976, dated 1977)", "key": {"rats": {"system": "rats", "format": "in vivo, rat", "procedure": "Sedation was measured in rats for Indoramin and 4-Benzamido-1-[4-(indol-3-yl)-4-oxobutyl]piperidine in comparison with the tranquillisers perphenazine and haloperidol which were rated at 10.\nTwelve rats of each type were split into […] and dosed orally with 10, 25 or 50 mg/kg of the test compound in a vehicle comprising hydroxymethylcellulose (0.5%) in (0.9% saline). Each rat was housed singly, after dosing and observed closely for 2 hours, then intermittently for a further four hours, behavioural changes being noted.\nThe animals were left at least 72 hours before re-dosing to ensure the disappearance of residual hypotensive and sedative effects."}, "Patas monkey": {"system": "Patas monkey", "format": "in vivo", "conditions": "Patas monkey (male); oral 10-100 mg/kg", "procedure": "The sedative potential of the compounds was also compared in the Patas monkey at dosing levels of 10-100 mg/kg. A group of 6 animals were housed singly and observed daily for one week prior to dosing them orally with the drugs. Each animal served as its own control because of individual variation in temperament. An assessment was made of behavioural changes (indicative of sedation) induced by either drug and the dose ratio separating the drug effects on identical features was determined."}, "[1]": {"conditions": "J. Med. Chem., 14, 1054-59 (1971); cited from earlier work"}, "in vivo": {"experiment": "in vivo", "conditions": "mouse"}}, "note": "Like-named read-outs stand apart in the source and are kept apart here.", "data": [{"compound": "O=C(NC1CCN(CCc2c[nH]c3ccccc23)CC1)c1ccccc1", "note": "[Indoramin, 3-[2(4-benzamidopiperid-1-xl)ethyl] indole, reference compound]", "values": [{"measurement": "Approximate sedative potency ratio", "setting": "rats; normotensive rat (male and female)", "result": 5}, {"measurement": "Approximate sedative potency ratio", "setting": "rats; renal hypertensive rat (female)", "result": 5}, {"measurement": "Approximate sedative potency ratio", "setting": "rats; spontaneous hypertensive rat (male)", "result": 5}, {"measurement": "Approximate sedative potency ratio", "setting": "Patas monkey", "result": 5}, {"measurement": "hypotensive action", "setting": "[1]", "result": "sustained hypotensive action"}, {"measurement": "LD50", "setting": "in vivo; ip", "result": 453, "unit": "mg/kg"}, {"measurement": "LD50 at 24 h", "setting": "in vivo; ip", "result": 453, "unit": "mg/kg"}, {"measurement": "LD50", "setting": "in vivo; po", "result": 1050, "unit": "mg/kg"}, {"measurement": "LD50 at 24 h", "setting": "in vivo; po", "result": 1320, "unit": "mg/kg"}]}]}
